Legend:
[1] = target: T1, recombinant hCD127 (Sino Biologicals, reference 10975-H08H) (human, UniProt P16871 21-239); experiment: Blitz (BLI), hCD127 captured on anti-human IgG Fc (AHC) biosensor, antibody at 20 µg/mL
T1 construct: Bought recombinant protein; In the Blitz assay the protein is said to be captured by an Fc fragment, and a second catalogue number (11612-H08H) is printed; also called human CD127 recombinant protein; recombinant human CD127
T1 chain: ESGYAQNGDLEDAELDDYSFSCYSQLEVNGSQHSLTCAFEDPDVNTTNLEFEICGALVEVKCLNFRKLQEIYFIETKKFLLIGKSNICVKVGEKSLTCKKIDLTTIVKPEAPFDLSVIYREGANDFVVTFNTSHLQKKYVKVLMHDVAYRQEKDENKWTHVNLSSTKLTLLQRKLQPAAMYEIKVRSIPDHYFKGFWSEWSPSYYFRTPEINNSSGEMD
Procedure: Recombinant hCD127 (Sino Biologicals, Beijing, China; reference 10975-H08H)/recombinant protein (Sino Biological Cat: 11612-H08H) was immobilized at 50 μg/ml by Fc fragment into anti-human IgG Fc (AHC) biosensor (Forte Bio, 18-5063) for 30 seconds. Then, anti-CD127 antibodies were added at 20 μg/mL (saturating concentration) for an association period of 120 seconds, followed by a dissociation period of anti-CD127 antibody in kinetics buffer for 120 seconds. Data analysis was made with the Blitz pro 1.2 software, which calculated association constant (ka) and dissociation constant (kd) and determined the affinity constant KD […].

[2] = target: T1, recombinant hCD127 (Sino Biologicals, …); experiment: ELISA, hCD127 immobilized on plastic at 1 µg/ml (given as ED50)
Procedure: For activity ELISA assay, recombinant hCD127 (Sino Biologicals, Beijing, China; reference 10975-H08H) was immobilized on plastic at 1 μg/ml and dilutions of anti-CD127 antibody were added to measure binding.

Kd [1]: 3.51 nM
koff [1]: 0.00447 s⁻¹
kon [1]: 1.27e+06 M⁻¹ s⁻¹
EC50 [2]: 0.0151 µg/mL
B1: N13B2-hVL3 (antibody, V domains shown)
VH: QVQLVESGGGLVKPGGSLRLSCAVSGFTLSDYYMAWIRQAPGKGLEWVSTISASGLRTYYPDSVKGRFTISRDNAKNSLYLQMNSLRAEDTAVYYCARPLSAHYGFNYFDYWGQGTLVTVSS
VL: DIQMTQSPSSLSASVGDRVTITCRTSEDIYQGLAWYQQKPGKAPKLLVYSANTLHIGVPSRFSGSGSGTDYTLTISSLQPEDFATYFCQQYYDYPLAFGGGTKVEIKR

Source: patent US20190375844A1 (OSE IMMUNOTHERAPEUTICS, published 2019)
